## scFv variants of Ab-91 (heavy chain) against a SARS-CoV-2 spike peptide

Data: MIT Lincoln Laboratory AlphaSeq set, Engelhart et al. 2022, doi:10.1038/s41597-022-01779-4, as distributed in FLAb.

Antigen: PDVDLGDISGINAS, a 14-residue peptide of the SARS-CoV-2 spike HR2 region.

Ab-91 is the parent antibody, in scFv form: VL, then a 15-residue (Gly4Ser)3 linker, then VH. The light chain is unchanged in all variants.
VL: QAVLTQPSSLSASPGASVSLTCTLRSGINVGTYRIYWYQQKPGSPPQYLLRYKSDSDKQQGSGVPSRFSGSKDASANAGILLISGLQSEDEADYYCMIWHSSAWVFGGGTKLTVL
VH: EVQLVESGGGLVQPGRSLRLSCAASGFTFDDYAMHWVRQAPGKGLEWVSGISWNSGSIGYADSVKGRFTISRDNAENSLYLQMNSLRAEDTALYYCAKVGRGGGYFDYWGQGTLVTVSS

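The starting antibody came from a phage panning campaign against this peptide. In library AAYL51, one, two or three CDR residues were substituted; doubles and triples were drawn at random. In AlphaSeq, yeast of one mating type display the scFv and yeast of the other type display the target. After mating in shaken culture at 30 °C for 16 h, diploids were selected and their barcode pairs sequenced. Scores were corrected for input abundance and mapped to Kd with protein pairs of known affinity run in the same pool. There are three technical replicates.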

Each variant's VH is given in full. Values are log10 of the apparent Kd in nM; lower means stronger binding. "nd" marks a missing value. The strain was present, yet no cells mated with the target were sequenced in that replicate, which points to weak or no binding.

For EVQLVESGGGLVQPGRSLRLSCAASGFTFDDYAMHWVRQAPGKGLEWVSGIDWNEGSIGYADSVKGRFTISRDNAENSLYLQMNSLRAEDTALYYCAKVGRGGGYFFYWGQGTLVTVSS, the assay gave nd, nd, nd.
For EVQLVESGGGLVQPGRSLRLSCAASGFTCDDYAMHWVRQAPGKGLEWVSGISWNSGAIGYADSVKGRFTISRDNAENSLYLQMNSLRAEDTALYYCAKVGRGGGAFDYWGQGTLVTVSS, the assay gave nd, nd, nd.
For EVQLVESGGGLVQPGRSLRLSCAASGFKFMDYAMHWVRQAPGKGLEWVSGISWNSGSIGYADSVKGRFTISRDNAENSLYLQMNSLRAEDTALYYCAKVGAGGGYFDYWGQGTLVTVSS, the assay gave 1.10, 1.11, 0.34.
For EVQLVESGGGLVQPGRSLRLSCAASGFTFRHYAMHWVRQAPGKGLEWVSDISWNSGSIGYADSVKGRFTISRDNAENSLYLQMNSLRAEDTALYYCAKVGRGGGYFDYWGQGTLVTVSS, the assay gave 5.26, nd, nd.
For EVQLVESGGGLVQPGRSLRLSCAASGFVFDDYAMHWVRQAPGKGLEWVSIIGWNSGSIGYADSVKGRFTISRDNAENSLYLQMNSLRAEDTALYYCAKVGRGGGYFDYWGQGTLVTVSS, the assay gave nd, nd, nd.
For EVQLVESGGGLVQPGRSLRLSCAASGFTFDDYAMHWVRQAPGKGLEWVSGSSWNSGSIGYADSRKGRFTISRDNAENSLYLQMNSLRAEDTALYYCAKVGRGGGYFDYWGQGTLVTVSS, the assay gave nd, nd, nd.
For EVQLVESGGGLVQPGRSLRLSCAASGFTFDGYAMIWVRQAPGKGLEWVSGISWNCGSIGYADSVKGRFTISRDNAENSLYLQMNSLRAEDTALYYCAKVGRGGGYFDYWGQGTLVTVSS, the assay gave nd, nd, nd.

The remaining entries, values ahead:

nd, nd, nd for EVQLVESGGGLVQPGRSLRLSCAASGFTFDDYAMHWVRQAPGKGLEWVSGIKWNSGSIVYADSVKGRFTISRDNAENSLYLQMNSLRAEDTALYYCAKRGRGGGYFDYWGQGTLVTVSS.
nd, nd, 4.40 for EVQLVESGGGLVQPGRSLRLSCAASGFTFDDIAMHWVRQAPGKGLEWVSGASWNSGSIGYADSVKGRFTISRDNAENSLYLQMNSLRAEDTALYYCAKVQRGGGYFDYWGQGTLVTVSS.
nd, nd, nd for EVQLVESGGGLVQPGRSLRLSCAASGFTFDDYAMHWVRQAPGKGLEWVSGISWNSGSIGYHDSVKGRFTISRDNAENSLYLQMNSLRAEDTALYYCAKVGRGAQYFDYWGQGTLVTVSS.
4.66, 4.61, nd for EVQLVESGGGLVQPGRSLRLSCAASGFTFDDYAMLWVRQAPGKGLEWVSGISWNSGSIGDADSVKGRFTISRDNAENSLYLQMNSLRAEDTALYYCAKVGRGGTYFDYWGQGTLVTVSS.
nd, nd, nd for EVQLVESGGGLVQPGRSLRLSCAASGFTFDDYAMHWVRQAPGKGLEWVSGISWNSGSIGYADSVKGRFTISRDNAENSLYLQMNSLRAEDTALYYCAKVGPGGGYFPPWGQGTLVTVSS.
nd, nd, nd for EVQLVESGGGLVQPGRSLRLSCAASGFTFDDYAMHWVRQAPGKGLEWVSGISWNSGSIGGGDSVKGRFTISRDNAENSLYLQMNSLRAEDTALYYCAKMGRGGGYFDYWGQGTLVTVSS.
4.77, nd, nd for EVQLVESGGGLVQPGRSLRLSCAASGFTFIDYAMHWVRQAPGKGLEWVSGISVNSGSIGYADQVKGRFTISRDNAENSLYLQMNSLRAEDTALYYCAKVGRGGGYFDYWGQGTLVTVSS.
nd, nd, nd for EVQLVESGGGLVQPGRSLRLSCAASKFTFDDYAMHWVRQAPGKGLEWVSGISWNSGSIGSADSVKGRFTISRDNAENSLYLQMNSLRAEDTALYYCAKVGRGGGYFDNWGQGTLVTVSS.

In this assay the parent's reference entry averaged 1.86; its copy inside this library read 0.88. Three control strains display no target. For library AAYL51, 21% of the pairings with them gave a signal, with a median of 4.54 and one signal in twenty below 3.26, so weak values seen in few replicates may be background.